Results as given in patent US10889805B2, “Intestinal epithelioid cells” (National Institutes of Biomedical Innovation, Health and …, priority 2015, dated 2021).

Protein sequences, listed by entry. Tags and fused reporters are not part of them.
UniProt P08183, whole entry: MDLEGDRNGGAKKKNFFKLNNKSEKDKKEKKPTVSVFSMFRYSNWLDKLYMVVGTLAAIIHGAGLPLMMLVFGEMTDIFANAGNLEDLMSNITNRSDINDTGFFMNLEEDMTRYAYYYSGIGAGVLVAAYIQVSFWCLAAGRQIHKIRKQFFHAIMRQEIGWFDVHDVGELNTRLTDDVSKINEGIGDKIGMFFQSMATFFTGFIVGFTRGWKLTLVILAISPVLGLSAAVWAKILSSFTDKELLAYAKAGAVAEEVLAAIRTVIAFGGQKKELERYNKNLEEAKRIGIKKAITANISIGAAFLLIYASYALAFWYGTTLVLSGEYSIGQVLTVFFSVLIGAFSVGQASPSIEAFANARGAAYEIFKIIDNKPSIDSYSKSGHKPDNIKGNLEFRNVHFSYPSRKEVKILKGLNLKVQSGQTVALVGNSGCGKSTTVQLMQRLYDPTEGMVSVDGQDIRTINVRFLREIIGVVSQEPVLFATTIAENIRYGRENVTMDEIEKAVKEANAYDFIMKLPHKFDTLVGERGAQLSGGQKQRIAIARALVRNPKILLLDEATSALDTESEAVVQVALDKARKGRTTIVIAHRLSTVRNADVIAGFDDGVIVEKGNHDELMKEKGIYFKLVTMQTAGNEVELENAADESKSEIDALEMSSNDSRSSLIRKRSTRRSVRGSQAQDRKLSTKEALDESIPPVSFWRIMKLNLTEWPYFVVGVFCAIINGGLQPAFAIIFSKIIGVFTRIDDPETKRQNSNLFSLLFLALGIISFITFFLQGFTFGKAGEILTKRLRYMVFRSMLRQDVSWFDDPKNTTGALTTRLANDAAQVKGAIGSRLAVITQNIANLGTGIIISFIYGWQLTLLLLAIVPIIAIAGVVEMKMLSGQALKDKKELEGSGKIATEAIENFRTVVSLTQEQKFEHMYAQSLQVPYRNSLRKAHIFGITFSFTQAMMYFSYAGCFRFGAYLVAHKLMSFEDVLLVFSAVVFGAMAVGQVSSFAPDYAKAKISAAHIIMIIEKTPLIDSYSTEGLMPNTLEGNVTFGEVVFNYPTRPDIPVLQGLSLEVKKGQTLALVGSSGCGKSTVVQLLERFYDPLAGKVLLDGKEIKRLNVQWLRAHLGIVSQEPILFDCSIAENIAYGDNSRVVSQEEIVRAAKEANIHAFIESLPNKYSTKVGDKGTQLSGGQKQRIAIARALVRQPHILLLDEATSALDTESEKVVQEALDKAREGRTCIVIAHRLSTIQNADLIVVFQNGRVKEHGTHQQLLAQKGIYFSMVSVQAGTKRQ

Molecular target: P-gp (Homo sapiens, UniProt P08183)
Details: 10 μM

With Rhodamine 123 the ER value was 2.1.
